Measurements from ChEMBL document CHEMBL1147940, “Differential receptor binding characteristics of consecutive phenylalanines in micro-opioid specific peptide ligand endomorphin-2” (Bioorg Med Chem, 2007).

Amino acid sequences for entries named in this document (tags omitted).
UniProt P33535, whole entry: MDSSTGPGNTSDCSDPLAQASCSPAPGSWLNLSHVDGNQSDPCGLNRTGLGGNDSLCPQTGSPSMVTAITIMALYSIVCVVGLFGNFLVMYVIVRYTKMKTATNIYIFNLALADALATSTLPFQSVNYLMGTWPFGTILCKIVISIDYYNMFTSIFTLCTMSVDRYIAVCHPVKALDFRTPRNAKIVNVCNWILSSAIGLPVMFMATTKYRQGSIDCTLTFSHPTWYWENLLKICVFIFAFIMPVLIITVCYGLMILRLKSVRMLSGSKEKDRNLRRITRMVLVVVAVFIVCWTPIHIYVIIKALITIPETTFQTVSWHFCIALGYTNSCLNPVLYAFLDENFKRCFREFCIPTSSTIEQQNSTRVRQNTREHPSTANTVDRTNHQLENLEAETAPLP

Biological target: Mu-type opioid receptor (Rattus norvegicus, UniProt P33535)
Experiment: Displacement of [3H]DAGO from mu opioid receptor in rat brain membrane
Type: cell membranes

SMILES: C[C@@H](NC(=O)[C@@H](N)Cc1ccc(O)cc1)C(=O)NCC(=O)N(C)[C@@H](Cc1ccccc1)C(=O)NCCO [DAMGO]
- IC50: 1.13 nM
